Patent publication US20130231296A1, “NEW DRUG COMBINATIONS FOR THE TREATMENT OF MALARIA” (Bioagency AG, priority 2010, published 2013)

Legend:
[1] = system: P. falciparum 3D7; assay: in vitro inhibition of parasite growth by [3H] hypoxanthine incorporation, drugs alone; assay type: cell-based, Plasmodium falciparum; conditions: for IC50: P. falciparum 3D7 (chloroquine sensitive)
Description: (§1) 1. Initial determination of the in vitro efficacy profile (IC50/IC90) of FOS and PIP against a drug sensitive and a drug resistant strain of Plasmodium falciparum. P. falciparum 3D7 is chloroquine sensitive, P. falciparum K1 is insensitive to chloroquine
(§2) in vitro inhibition of parasite growth was assessed by the incorporation of [3H] hypoxanthine, including chloroquine (CQ) and artesunate (ASN) as positive control drugs.
(§3) The first set of in vitro experiments established the IC50 values of the drugs alone, followed by Fixed Ratio Combination assays of FOS+PIP with FOS+CND as a control combination. Chloroquine and artesunate were included in all assays to ensure the validity of the test.
(§4) The first sets of experiments were carried out to establish the IC50 and IC90 values of the drugs on their own. The drugs were evaluated in 3 separate experiments (see Tables 1 & 2)

[2] = system: P. falciparum K1; assay: as above; assay type: cell-based, Plasmodium falciparum; conditions: for IC50: P. falciparum K1 (insensitive to chloroquine)
Description: as §1, §2, §3, §4

**Q.** For Clindamycin hydrochloride [CDN], which IC50 ([1]; Experiment 1) is on record?
**A.** <0.21 µg/mL

**Q.** And the IC50 ([1]; Experiment 2)?
**A.** <0.21 µg/mL

**Q.** What about the IC50 ([1]; Experiment 3) of the same substance?
**A.** 0.26 µg/mL

**Q.** And the IC90 ([1]; P. falciparum 3D7, Experiment 1)?
**A.** 0.27

**Q.** What about the IC90 ([1]; P. falciparum 3D7, Experiment 2) of the same substance?
**A.** 34.08

**Q.** And the IC90 ([1]; P. falciparum 3D7, Experiment 3)?
**A.** >10

**Q.** What about the IC50 ([2]; Experiment 1) of the same substance?
**A.** 46.19 µg/mL

**Q.** What about the IC50 ([2]; Experiment 2) of the same substance?
**A.** 45.15 µg/mL

**Q.** And the IC50 ([2]; Experiment 3)?
**A.** 0.53 µg/mL

**Q.** And the IC90 ([2]; P. falciparum K1, Experiment 1)?
**A.** >50

**Q.** And the IC90 ([2]; P. falciparum K1, Experiment 2)?
**A.** >50

**Q.** And the IC90 ([2]; P. falciparum K1, Experiment 3)?
**A.** >50
